Earlier results, collected in patent US20230265432A1, “METHODS AND COMPOSITIONS FOR TREATING ACUTE MYELOID LEUKEMIA” (Sanford Burnham Prebys Medical Discovery Institute, priority 2021, published 2023).

Sequences of proteins named here, by UniProt entry; tags and fusion partners are left off. A change or cut given only in a name is not applied to a line headed by its entry.
UniProt P23526: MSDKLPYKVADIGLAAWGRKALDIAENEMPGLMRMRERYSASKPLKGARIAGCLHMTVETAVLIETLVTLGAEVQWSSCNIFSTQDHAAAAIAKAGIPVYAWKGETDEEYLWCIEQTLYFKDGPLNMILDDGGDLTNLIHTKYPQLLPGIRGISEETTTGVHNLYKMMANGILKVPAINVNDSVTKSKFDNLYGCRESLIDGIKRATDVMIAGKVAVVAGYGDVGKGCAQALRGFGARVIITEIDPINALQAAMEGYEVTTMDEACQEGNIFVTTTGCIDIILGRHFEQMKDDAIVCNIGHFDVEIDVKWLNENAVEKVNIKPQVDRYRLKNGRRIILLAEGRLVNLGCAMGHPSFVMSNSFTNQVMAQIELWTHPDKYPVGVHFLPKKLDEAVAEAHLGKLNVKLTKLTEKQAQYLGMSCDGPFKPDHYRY
UniProt P25440, whole entry, species assumed: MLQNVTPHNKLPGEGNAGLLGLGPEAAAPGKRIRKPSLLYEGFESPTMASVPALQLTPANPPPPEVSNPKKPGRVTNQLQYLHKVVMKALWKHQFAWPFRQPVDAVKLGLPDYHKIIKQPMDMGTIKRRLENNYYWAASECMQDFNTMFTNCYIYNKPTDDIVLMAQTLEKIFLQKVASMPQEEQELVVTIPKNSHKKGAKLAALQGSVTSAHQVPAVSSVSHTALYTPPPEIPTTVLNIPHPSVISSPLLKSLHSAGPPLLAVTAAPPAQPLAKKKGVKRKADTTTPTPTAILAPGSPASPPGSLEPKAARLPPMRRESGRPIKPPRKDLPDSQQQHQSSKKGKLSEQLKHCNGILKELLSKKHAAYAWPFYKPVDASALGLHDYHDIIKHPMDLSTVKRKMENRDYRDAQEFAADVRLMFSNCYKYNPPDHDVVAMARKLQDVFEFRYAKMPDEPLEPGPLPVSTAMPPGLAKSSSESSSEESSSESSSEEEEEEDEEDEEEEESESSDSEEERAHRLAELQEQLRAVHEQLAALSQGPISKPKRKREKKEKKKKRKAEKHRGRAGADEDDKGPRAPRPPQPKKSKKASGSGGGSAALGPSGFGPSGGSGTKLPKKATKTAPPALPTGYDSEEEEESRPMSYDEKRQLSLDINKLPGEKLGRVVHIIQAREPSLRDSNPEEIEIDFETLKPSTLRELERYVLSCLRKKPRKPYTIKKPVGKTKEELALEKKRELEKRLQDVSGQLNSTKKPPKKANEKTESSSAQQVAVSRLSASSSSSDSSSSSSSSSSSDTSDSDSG
UniProt Q15059, whole entry, species assumed: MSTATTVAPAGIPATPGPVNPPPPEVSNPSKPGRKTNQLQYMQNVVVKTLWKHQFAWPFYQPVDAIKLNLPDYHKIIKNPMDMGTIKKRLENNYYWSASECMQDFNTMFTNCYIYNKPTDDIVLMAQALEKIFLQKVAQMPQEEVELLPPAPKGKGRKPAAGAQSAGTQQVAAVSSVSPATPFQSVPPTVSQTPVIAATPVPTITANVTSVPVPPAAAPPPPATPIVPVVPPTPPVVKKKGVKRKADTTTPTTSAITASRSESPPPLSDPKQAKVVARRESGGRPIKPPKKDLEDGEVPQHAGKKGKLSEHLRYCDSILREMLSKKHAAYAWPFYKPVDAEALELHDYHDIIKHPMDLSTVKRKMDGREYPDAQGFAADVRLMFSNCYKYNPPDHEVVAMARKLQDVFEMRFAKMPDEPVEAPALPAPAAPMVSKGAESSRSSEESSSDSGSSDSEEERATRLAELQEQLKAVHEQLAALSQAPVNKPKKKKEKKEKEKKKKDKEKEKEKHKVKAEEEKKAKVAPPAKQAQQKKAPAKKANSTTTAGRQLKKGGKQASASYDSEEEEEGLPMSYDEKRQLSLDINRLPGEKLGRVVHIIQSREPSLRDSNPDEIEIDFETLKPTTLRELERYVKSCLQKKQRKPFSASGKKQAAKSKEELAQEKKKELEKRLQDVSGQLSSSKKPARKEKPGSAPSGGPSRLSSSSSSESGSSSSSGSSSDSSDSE

Tests used:
Conditions in all cases: cited from earlier work
[1] = target: S-adenosylhomocysteine hydrolase (Homo sapiens, UniProt P23526)
EGFR = EGFR (Homo sapiens, UniProt P00533)
BRD2 = BRD2 (Homo sapiens, UniProt P25440)
BRD3 = BRD3 (Homo sapiens, UniProt Q15059)

Substance: (−)-Neplanocin A
- Ki [1]: 8.39 nM

Substance: AG-490 (Tyrphostin B42)
- IC50 (EGFR): 100 nM

Substance: I-BET151 (GSK1210151A)
- IC50 (BRD2): 500 nM
- IC50 (BRD3): 250 nM
